Measured values as given in publication PMC6754406, “Ran pathway-independent regulation of mitotic Golgi disassembly by Importin-α” (Nature Communications, 2019).

Biological target: Importin-β, recombinant, non-tagged (human) (UniProt Q14974)
Test: pull-down; GST-GM130 (WT or S25D) with His-tagged RanQ69L and Importin-α FL or Importin-β at a molar ratio of 1:4:1 GM130:RanQ69L:Importin, or without RanQ69L; SDS-PAGE, Coomassie blue

fold reduction of Importin-β pulldown by GST-GM130-S25D with RanQ69L: 9 fold | percent of Importin-β released from GST-GM130-S25D by RanQ69L: 70% | percent of Importin-β released from GST-GM130-WT by RanQ69L: 47%
Substance: RanQ69L (a constitutively active mutant), His-tagged (from UniProt P62826 1-216) (enzyme; other documents disagree on this pair)
